Yeast mating assay B: variants of the scFv Ab-14

The target is the same throughout: PDVDLGDISGINAS, from the HR2 region of SARS-CoV-2 spike.

Parent: Ab-14, a human scFv built as VH, three GGGGS repeats, VL. Only the CDRs of the heavy chain vary.
VH: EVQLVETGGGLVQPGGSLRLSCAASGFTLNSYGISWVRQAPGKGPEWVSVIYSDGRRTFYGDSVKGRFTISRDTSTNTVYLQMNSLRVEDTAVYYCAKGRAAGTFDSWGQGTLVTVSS
VL: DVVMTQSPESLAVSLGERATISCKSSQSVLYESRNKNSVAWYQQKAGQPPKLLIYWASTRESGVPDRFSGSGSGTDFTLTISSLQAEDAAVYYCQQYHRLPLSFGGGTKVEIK

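These sequences belong to a second round, designed from the earlier measurements on random variants of the parent. Their group label is 14H_GPLM_Gibbs (GPLM: also part of the Gaussian process libraries; Gibbs: Gibbs sampling; a sequence that several methods proposed may carry one label only). The scFvs were displayed on barcoded MATa yeast, the peptide on MATalpha yeast. Pairs that bind mate more often; barcode pairs of the diploids are counted by sequencing. Scores were corrected for input abundance and mapped to Kd with protein pairs of known affinity run in the same pool. There are six technical replicates.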

Variants are written as CDR1, CDR2 and CDR3 of the heavy chain (limits as in the source). Parent: GFTLNSYGIS, VIYSDGRRTFYGDSVK, GRAAGTFDS. Numbers give log10(Kd / nM), so 0 is 1 nM and 3 is 1 µM. Smaller is tighter. A pair that was not seen in that replicate is written "nd"; this usually means weak binding, but a binder can also be missed. Of ten entries with the parent sequence, four were seen in most replicates (averages 0.34 to 2.37), three in one and three in none, so single entries are noisy. Nonspecific signal, from three strains lacking the peptide, appeared in 1% of pairings of all heavy chain designs, centred on 2.08 (5% of these signals below 0.84); values are not corrected for it. Also given: how often the same scFv was detected with the empty control strains. In the paper, a design with two or fewer of six values counts as a poor binder. Values of this round are not directly comparable with the first-round values of the same sequences.

With GFSLNSYGIS | VIYSDGRRTAYGDSVK | GRAAGTFDQ the result was -0.03, 0.04, -0.03, -0.43, -0.14, -0.03 (controls 1 of 18).
With GFELNSYGIS | VIYSDGRRTFYGDSVK | GRQAGTFDA the result was 1.46, nd, 0.35, 0.68, 1.35, nd (controls 0 of 18).
With GFNLNSYGIS | VIYSDGRRTFYTDSVK | GKAAGTFDS the result was 0.74, 0.51, 0.49, 0.62, 0.66, 1.02 (controls 0 of 18).
With GFELNSYGIS | VIYSDGRRTFYGDDVK | GVEAGTFDS the result was 0.51, 0.85, 1.03, 0.46, 1.10, 0.83 (controls 0 of 18).
With GFELNSYGIS | VIYSDGRRTFYADSVK | GKTAGTFDS the result was 0.39, -0.03, 0.25, -0.29, -0.15, 0.55 (controls 0 of 18).
With GFELNSYGIS | VIYSDGRRTFYIDSVK | GQAAGTFDT the result was 0.64, 0.06, 0.35, -0.41, nd, 1.33 (controls 0 of 18).
With GFWLNSYGIS | VIYSDGRRTAYGDSVK | GRTAGTFDS the result was 1.51, 0.77, 2.10, 0.97, 1.26, nd (controls 0 of 18).
With GFGLNSYGIS | VIYSDGRRTFYADSVK | GWTAGTFDS the result was 0.77, nd, 0.30, -0.52, 0.64, 0.88 (controls 0 of 18).
With GFDLNSYGIS | VIYSDGRRTFYIDSVK | GQAAGTFDL the result was 0.57, 0.23, 0.49, 0.07, 0.14, 0.41 (controls 0 of 18).
With GFNLNSYGIS | VIYSDGRRTFYADRVK | GRTAGTFDS the result was nd, 1.34, 1.36, nd, 2.46, 2.19 (controls 1 of 18).
With GFDLNSYGIS | VIYSDGRRTFYTDSVK | GREAGTFDS the result was 0.34, -0.18, 0.04, -0.18, -0.10, 0.27 (controls 0 of 18).
With GFELNSYGIS | VIYSDGRRTFYGDSVK | GKTAGTFDS the result was nd, 1.13, 0.66, 2.00, 0.67, 1.20 (controls 0 of 18).
With GFDLNSYGIS | VIYSDGRRTFYGDSVK | GREAGTFDK the result was 0.05, 0.09, 0.05, 0.42, 0.32, -0.14 (controls 0 of 18).
With GFELNEYGIS | VIYSDGRRTAYGDSVK | GRAAGTFDS the result was 0.12, -0.21, 0.07, -0.06, -0.15, 0.43 (controls 0 of 18).
With GFTLNSYGIS | VIYSDGKRTFYGDAVK | GEAAGTFDT the result was nd, nd, nd, nd, nd, nd (controls 0 of 18).
With GFTLNSYGIS | VIYSDGVRTFYSDSVK | GNAAGTFDS the result was 0.54, -0.04, 0.31, 0.34, 0.30, 0.33 (controls 0 of 18).
With GFELNSYGIS | VIYSDGRRTFYGDSVK | GKVAGTFDT the result was 1.04, 1.34, 1.16, 2.86, 1.89, 1.62 (controls 0 of 18).
With GFDLNNYGIS | VIYSDGRRTFYVDSVK | GQAAGTFDS the result was 0.23, -0.24, -0.23, 0.01, -0.22, 0.15 (controls 0 of 18).
With GFELNSYGIS | VIYADGRRTFYGDSVK | GHAAGTFDS the result was 0.17, 0.37, 1.20, -0.19, 0.47, 0.41 (controls 0 of 18).
With GFTLNSYGIS | VIYSDGKRTFYADSVK | GKAAGTFDS the result was 1.73, nd, 1.97, 0.95, 0.36, 0.98 (controls 0 of 18).
With GFELNSYGIS | VIYSDGKRTFYSDSVK | GRTAGTFDS the result was 0.92, 0.55, 0.68, -0.12, 0.41, 0.79 (controls 0 of 18).
With GFELNSYGIS | VIYSDGKRTFYGDSVK | GQAAGTFDS the result was 1.49, 1.11, 1.01, 1.31, 0.54, 0.99 (controls 0 of 18).
With GFWLNEYGIS | VIYSDGMRTFYGDSVK | GRTAGTFDS the result was nd, nd, 0.59, 0.94, 2.06, 1.45 (controls 1 of 18).
With GFSLNSYGIS | VIYSDGRRTFYGDSVK | GHEAGTFDS the result was -0.07, -0.18, -0.40, -0.46, -0.20, -0.14 (controls 0 of 18).
With GFDLNSYGIS | VIYSDGRRTFYSDSVK | GRQAGTFDS the result was -0.27, 0.07, -0.39, -0.09, -0.77, -0.34 (controls 0 of 18).
With GFHLNSYGIS | VIYSDGRRTFYADSVK | GKTAGTFDS the result was 0.22, 0.10, 0.41, 1.22, 1.88, 0.45 (controls 0 of 18).
With GFNLNSYGIS | VIYSDGRRTFYKDSVK | GEAAGTFDS the result was 1.11, 0.71, 1.01, 0.88, 0.46, 1.05 (controls 0 of 18).
With GFTLNSYGIS | VIYSDGKRTFYSDSVK | GQTAGTFDS the result was -0.23, -0.29, 0.49, 0.99, -0.06, -0.14 (controls 0 of 18).
With GFNLNSYGIS | VIYSDGRRTFYADNVK | GRTAGTFDS the result was 1.68, 0.39, 0.38, 0.22, 0.08, 0.05 (controls 0 of 18).
With GFDLNSYGIS | VIYSDGRRTYYGDSVK | GRTAGTFDS the result was 0.94, 0.17, -0.28, -0.26, 0.48, 0.06 (controls 0 of 18).
With GFNLNSYGIS | VIYSDGRRTFYGDSVK | GRTAGTFDC the result was nd, nd, nd, nd, nd, nd (controls 0 of 18).
With GFQLNSYGIS | VIYSDGRRTFYADSVK | GRMAGTFDS the result was 0.63, 0.61, 1.60, 0.72, 1.10, 1.09 (controls 0 of 18).
With GFDLNSYGIS | VIYSDGRRTFYVDSVK | GRQAGTFDS the result was -0.66, -0.37, -0.79, -0.98, -0.09, -0.68 (controls 0 of 18).

Reference: Li et al. 2023, doi:10.1038/s41467-023-39022-2. File: FLAb, binding data.